{
  "sequences": {"note": "By UniProt entry, the sequences of proteins in these tests, tags left out.", "UniProt P14416, whole entry, looked up": "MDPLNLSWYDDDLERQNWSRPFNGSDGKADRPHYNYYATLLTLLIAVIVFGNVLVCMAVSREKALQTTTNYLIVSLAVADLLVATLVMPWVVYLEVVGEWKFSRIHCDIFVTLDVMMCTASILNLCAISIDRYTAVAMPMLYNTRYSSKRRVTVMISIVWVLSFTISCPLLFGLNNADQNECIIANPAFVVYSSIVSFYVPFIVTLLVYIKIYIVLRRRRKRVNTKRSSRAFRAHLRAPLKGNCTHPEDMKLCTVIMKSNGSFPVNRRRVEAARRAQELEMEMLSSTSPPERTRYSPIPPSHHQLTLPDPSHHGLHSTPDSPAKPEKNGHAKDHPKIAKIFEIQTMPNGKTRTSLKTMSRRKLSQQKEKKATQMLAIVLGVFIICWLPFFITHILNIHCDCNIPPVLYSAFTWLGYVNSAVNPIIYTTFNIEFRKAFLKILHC"},
  "source": "PubChem BioAssay AID485344",
  "about": "(National Center for Advancing Translational Sciences (NCATS), 2010)",
  "note": "Only a part is listed here, and it is no random draw. Activity calls are given as the source filed them. Rule as the data show it: active = inhibition above about 30%; inactive = below that, where a call was filed.",
  "data": [
    {"molecular_target": "D(2) dopamine receptor (Homo sapiens) (UniProt P14416)", "experiment": "HTS Assay for Allosteric Antagonists of the Human D2 Dopamine Receptor: Primary Screen for Antagonists; also: 0% is about no effect", "conditions": "HEK293 TREx D2 cells, calcium flux, dopamine EC80; at 10 µM; active compounds read high", "description": "NIH Chemical Genomics Center [NCGC] NIH Molecular Libraries Probe Centers Network [MLPCN] MLPCN Grant: NS064831-01 Assay Submitter (PI): David Sibley Dopamine receptors (DARs) are involved in the etiology and/or therapy of a number of neuropsychiatric and endocrine disorders. For instance, all receptor-based antiparkinsonian drugs work via stimulating the D2 DAR subtype whereas all FDA-approved antipsychotic agents are antagonists of this receptor. […] There are three different types of allosteric modulators that we are seeking, two of which will stimulate or augment receptor signaling, allosteric agonists and potentiators, while the third, allosteric antagonists, will attenuate receptor signaling. The present primary screening assay measures compound antagonism after an EC80 addition of dopamine by tracking calcium flux in a […], inducible Hek293 Trex D2 cell line.\nFreshly passaged cells are plated in 1536 well black, clear bottom plates at a density of 4000 cells/well in 3 ul of complete media containing 1x tetracycline inducer. After an overnight incubation at 30 C in 5% CO2, cells are loaded with 2 ul of the no wash Calcium Assay Kit (ABD Bioquest) and incubated at room temperature for 30 to 90 minutes. Agonist read: A 10 cycle (1 second/cycle) baseline measurement is taken and then the FDSS online 1536 pintool delivers 23 nl of compound library (as well as dopamine controls) to the plate. The plate is measured for kinetically at 1 cycle/sec for 180 seconds. Following the 180 second read, 1 ul of an EC80 (negative modulation assay) is delivered by an onboard pipette head. Measurements are taken kinetically for an additional 180 seconds.", "values": [
      {"smiles": "CC(=O)NC(SC(=S)N(C)C)C(Cl)(Cl)Cl", "note": "(stereo not drawn)", "inhibition": "inactive: -27.1%"},
      {"smiles": "O=[N+]([O-])c1ncn(CCn2cnc([N+](=O)[O-])n2)n1", "inhibition": "inactive: 0.537%"},
      {"smiles": "C(Cc1nn[nH]n1)Cc1nn[nH]n1", "inhibition": "inactive: 8.52%"},
      {"smiles": "Nc1ccc([As](=O)(O)c2ccc([N+](=O)[O-])cc2)cc1", "inhibition": "inactive: -15.7%"},
      {"smiles": "O=C(OC1CN2CCC1CC2)c1cccc(Cl)c1", "note": "(stereo not drawn)", "inhibition": "inactive: -0.0116%"},
      {"smiles": "Cc1nn(-c2ccccc2)c2c1P(=O)(N1CCOCC1)N(C)C(c1ccccc1)=N2", "note": "(stereo not drawn)", "inhibition": "inactive: -1.08%"},
      {"smiles": "CC1CCC(C(C)C)C(OP(=O)(Nc2ccccn2)c2ccccc2)C1", "note": "(stereo not drawn)", "inhibition": "inactive: -39.3%"},
      {"smiles": "Cc1ccc(C(=O)OC2CN3CCC2CC3)cc1", "note": "(stereo not drawn)", "inhibition": "inactive: 7%"},
      {"smiles": "O=C(/C=C/c1ccccc1)OC1CN2CCC1CC2", "note": "(stereo not drawn)", "inhibition": "inactive: 21%"},
      {"smiles": "CN(C)C1(CNC(=O)c2ccc(S(C)(=O)=O)cc2)CCCCC1", "inhibition": "inactive: -0.482%"},
      {"smiles": "O=P1(Nc2ncccn2)COc2ccccc2OC1", "inhibition": "inactive: -2.15%"},
      {"smiles": "Cc1ccc(OCC(=O)OC2CN3CCC2CC3)cc1", "note": "(stereo not drawn)", "inhibition": "inactive: 14.6%"},
      {"smiles": "O=[As](O)(c1cccs1)c1cccs1", "inhibition": "inactive: -17.2%"},
      {"smiles": "O=P1(Nc2ccc(Br)cn2)COc2ccccc2OC1", "inhibition": "inactive: -5.33%"},
      {"smiles": "Nc1cccc([As](=O)(O)c2ccccc2)c1", "inhibition": "inactive: 3.13%"},
      {"smiles": "CCOP(=O)(Nc1ccc(C)cn1)OCC", "inhibition": "inactive: 1.9%"},
      {"smiles": "O=P1(Nc2ccccn2)COc2ccccc2OC1", "inhibition": "inactive: -2.85%"},
      {"smiles": "CCC1=CC2Cc3nc4ccc(Cl)cc4c(N)c3C(C1)C2", "note": "(stereo not drawn)", "inhibition": "inactive: -18.5%"},
      {"smiles": "CCOP(=O)(NC(=NC(C)c1ccccc1)NC(C)c1ccccc1)OCC", "note": "(stereo not drawn)", "inhibition": "inactive: 20.5%"},
      {"smiles": "Clc1n[nH]nc1-c1nn[nH][15n]1", "inhibition": "inactive: 3.82%"},
      {"smiles": "CC(C)(C)C(=O)NC(Sc1ncccn1)C(Cl)(Cl)Cl", "note": "(stereo not drawn)", "inhibition": "inactive: 14.8%"},
      {"smiles": "COc1ccccc1CNC(=O)COC(=O)C(O)(c1ccccc1)c1ccccc1", "inhibition": "inactive: -3.8%"},
      {"smiles": "O=[As](O)(c1ccccc1Br)c1ccccc1Br", "inhibition": "inactive: 3.49%"},
      {"smiles": "CC(C)/C=N\\N=C(\\N)N[N+](=O)[O-]", "inhibition": "inactive: -24.3%"},
      {"smiles": "CN(C(=O)Cc1ccc(Cl)c(Cl)c1)[C@@H]1CCCC[C@H]1N1CCCC1", "inhibition": "inactive: -21%"},
      {"smiles": "O=[As](O)(O)c1cccnc1", "inhibition": "inactive: -9.11%"},
      {"smiles": "COc1cc(C(=O)NCC2(N3CCOCC3)CCCCC2)cc(Cl)c1OC(C)C", "inhibition": "inactive: -4.26%"},
      {"smiles": "CS(=O)(=O)c1ccc(Cl)c(NC(=O)COC(=O)C(O)(c2ccccc2)c2ccccc2)c1", "inhibition": "inactive: -30%"},
      {"smiles": "O=C(OC1CN2CCC1CC2)c1ccc(Cl)cc1", "note": "(stereo not drawn)", "inhibition": "inactive: 2.85%"},
      {"smiles": "Cc1cccc(OCC(=O)OC2CN3CCC2CC3)c1", "note": "(stereo not drawn)", "inhibition": "active: 33.1%"},
      {"smiles": "O=[As](O)(c1cccc(O)c1)c1cccc(O)c1", "inhibition": "inactive: -9.91%"},
      {"smiles": "CCCOP(=S)(Nc1nc(N)cc(=O)[nH]1)OCCC", "inhibition": "inactive: -4.22%"},
      {"smiles": "Cc1ccc(NCCc2c([N+](=O)[O-])cc([N+](=O)[O-])cc2[N+](=O)[O-])cc1", "inhibition": "inactive: -13.1%"},
      {"smiles": "Nc1cccc2c([As](=O)(O)O)cccc12", "inhibition": "inactive: 23.5%"},
      {"smiles": "COc1cc(C2NCCC3(OCCO3)C2(C)C)cc(OC)c1OC", "note": "(stereo not drawn)", "inhibition": "inactive: 0.906%"},
      {"smiles": "CCOP(=O)(Nc1cccc2ccccc12)OCC", "inhibition": "inactive: 0.753%"},
      {"smiles": "CS(=O)(=O)c1cc([N+](=O)[O-])c2no[n+]([O-])c2c1", "inhibition": "inactive: 8.45%"},
      {"smiles": "CCOP1(=S)c2c(C)nn(CCC#N)c2N=C(c2ccccc2F)N1C", "note": "(stereo not drawn)", "inhibition": "inactive: -15.9%"},
      {"smiles": "O=P(Nc1nccs1)(Oc1ccccc1)Oc1ccccc1", "inhibition": "inactive: -4.25%"},
      {"smiles": "O=P(Nc1nccs1)(c1ccccc1)c1nc2ccccc2s1", "note": "(stereo not drawn)", "inhibition": "inactive: 1.29%"},
      {"smiles": "Nc1ccccc1[As](=O)(O)c1ccccc1", "inhibition": "inactive: 11.5%"},
      {"smiles": "O=C(O)COc1ccc([As](=O)(O)O)cc1[N+](=O)[O-]", "inhibition": "inactive: 14.5%"},
      {"smiles": "NC(=O)Nc1ccc([As](=O)(O)O)cc1", "inhibition": "inactive: -2.88%"},
      {"smiles": "O=[N+]([O-])c1ccc2c(c1)nnn2O", "inhibition": "inactive: 9.88%"},
      {"smiles": "N#CCCN(C(=O)COC(=O)C(O)(c1ccccc1)c1ccccc1)c1ccc(F)cc1", "inhibition": "inactive: -16.4%"},
      {"smiles": "CN(C(=O)Cc1ccccc1)[C@@H]1CC[C@]2(CCCO2)C[C@H]1N1CCCC1", "inhibition": "inactive: -40.8%"},
      {"smiles": "CCOP1(=S)c2c(C)nn(CCC#N)c2N=C(c2ccc(F)cc2)N1C", "note": "(stereo not drawn)", "inhibition": "inactive: -11.4%"},
      {"smiles": "C[As](=O)(O)c1cccc(C(=O)O)c1", "inhibition": "inactive: 8.9%"},
      {"smiles": "O=[As](O)(c1ccc(O)cc1)c1ccccc1O", "inhibition": "inactive: -15.2%"},
      {"smiles": "Cc1ccc2nc3c(c(C)c2c1)CC(C(Cl)Cl)S3", "note": "(stereo not drawn)", "inhibition": "active: 38%"},
      {"smiles": "Cc1ccc(OP(=O)(Nc2ccc([N+](=O)[O-])cn2)Oc2ccc(C)cc2)cc1", "inhibition": "inactive: -7.5%"},
      {"smiles": "CC(C)c1ccc(OP(=O)(Nc2ccccn2)Oc2ccccc2F)cc1", "note": "(stereo not drawn)", "inhibition": "inactive: -9.39%"},
      {"smiles": "CC(C)NC(=O)NP(=O)(Oc1ccccc1)Oc1ccccc1", "inhibition": "inactive: -4.44%"},
      {"smiles": "CCN(CC)C(=S)SC(NC=O)C(Cl)(Cl)Cl", "note": "(stereo not drawn)", "inhibition": "inactive: 0.428%"},
      {"smiles": "O=[N+]([O-])c1cc([N+](=O)[O-])c(-c2ccn[nH]2)s1", "inhibition": "inactive: 26.9%"},
      {"smiles": "O=C(OC1CN2CCC1CC2)C12CC3CC(CC(C3)C1)C2", "note": "(stereo not drawn)", "inhibition": "inactive: 2.76%"},
      {"smiles": "Cc1cc(=O)[nH]c(N[N+](=O)[O-])n1", "inhibition": "inactive: -17%"},
      {"smiles": "Cc1c2c(nc3ccccc13)SC(C(Cl)Cl)C2", "note": "(stereo not drawn)", "inhibition": "inactive: -16.4%"},
      {"smiles": "COc1ccc2nc(NP(=O)(c3ccccc3)c3ccccc3)sc2c1", "inhibition": "inactive: -17.6%"},
      {"smiles": "COc1cc(I)ccc1[As](=O)(O)O", "inhibition": "inactive: -7.88%"},
      {"smiles": "COc1ccc(N/C(=N/P(=O)(N2CCOCC2)N2CCOCC2)N2CCOCC2)cc1", "inhibition": "inactive: -2.02%"},
      {"smiles": "COP1(=S)c2c(C)nn(CCC#N)c2N=C(c2ccc(F)cc2)N1C", "note": "(stereo not drawn)", "inhibition": "inactive: 14.6%"},
      {"smiles": "O=C(COc1ccccc1)OC1CN2CCC1CC2", "note": "(stereo not drawn)", "inhibition": "inactive: 4.72%"},
      {"smiles": "O=C(Nc1ccncc1[N+](=O)[O-])c1ccc([N+](=O)[O-])cc1[N+](=O)[O-]", "inhibition": "inactive: 7.17%"},
      {"smiles": "CCOC(=O)c1ccc(NC(=O)C(C)(CCl)SC)cc1", "note": "(stereo not drawn)", "inhibition": "inactive: 0.125%"},
      {"smiles": "O=C(OC1CN2CCC1CC2)c1cccc([N+](=O)[O-])c1", "note": "(stereo not drawn)", "inhibition": "inactive: 9.59%"},
      {"smiles": "CCC(C)N(CC(C)C)C(=S)SC(NC(C)=O)C(Cl)(Cl)Cl", "note": "(stereo not drawn)", "inhibition": "inactive: -4.86%"},
      {"smiles": "CCOC(=O)Nc1ccc([As](=O)(O)O)c(O)c1", "inhibition": "inactive: -6.93%"},
      {"smiles": "CCCCOc1ccc(C(=O)NCC2(N3CCCCC3)CCCCC2)cc1OC", "inhibition": "active: 30.7%"},
      {"smiles": "Cc1cc(SC(NC(=O)c2ccccc2)C(Cl)(Cl)Cl)nc(C(C)C)n1", "note": "(stereo not drawn)", "inhibition": "inactive: 6.09%"},
      {"smiles": "CCOC(=O)Nc1cccc([As](=O)(O)O)c1", "inhibition": "inactive: 3.3%"},
      {"smiles": "O=[N+]([O-])c1ccc(Nc2ccc(Oc3ccc([N+](=O)[O-])cc3[N+](=O)[O-])cc2)c([N+](=O)[O-])c1", "inhibition": "inactive: -10.9%"},
      {"smiles": "O=P(Nc1ccccn1)(c1cccc2ccccc12)c1cccc2ccccc12", "inhibition": "inactive: 1.11%"}
    ]}
  ]
}
